Source: patent publication US11519922B2, “Methods for identifying risk of chemotherapy-induced cardiotoxicity and targeted medical intervention” (Detroit R&D, Inc., priority 2018, dated 2022)

Chains of the proteins cited; added tags and fusions are not shown.
UniProt P34913, whole entry, species assumed: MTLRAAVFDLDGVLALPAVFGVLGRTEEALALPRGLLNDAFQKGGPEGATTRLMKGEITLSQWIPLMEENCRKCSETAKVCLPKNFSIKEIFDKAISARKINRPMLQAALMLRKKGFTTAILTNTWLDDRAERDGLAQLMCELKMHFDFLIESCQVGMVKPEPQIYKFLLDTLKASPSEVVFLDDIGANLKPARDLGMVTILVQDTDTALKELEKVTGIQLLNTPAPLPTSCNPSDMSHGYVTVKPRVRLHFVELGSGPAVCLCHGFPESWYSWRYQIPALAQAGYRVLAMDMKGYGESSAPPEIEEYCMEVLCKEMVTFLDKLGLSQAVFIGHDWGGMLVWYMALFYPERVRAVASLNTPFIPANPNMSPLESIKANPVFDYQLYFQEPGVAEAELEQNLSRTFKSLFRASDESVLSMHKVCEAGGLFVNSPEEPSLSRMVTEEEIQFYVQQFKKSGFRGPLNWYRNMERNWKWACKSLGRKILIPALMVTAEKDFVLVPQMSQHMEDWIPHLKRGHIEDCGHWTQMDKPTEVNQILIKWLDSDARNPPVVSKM

Legend:
recombinant sEH = recombinant sEH (Homo sapiens, UniProt P34913); assay: Inhibition of EET-dependent sEH activity, reconstituted system; assay type: biochemical
[1] = target: T1, sEH in human kidney cells (ACHN) (Homo sapiens, UniProt P34913); assay: Inhibition of EET-dependent sEH activity in kidney cells; assay type: cell-based
T1 construct: recombinant sEH and human kidney cells (ACHN); endogenous in cells; host or cells: ACHN human kidney cells

Substance: 12[[(tricycle[3.3.1.13,7]dec-1-ylamino)carbonyl]amino]-dodecanoic acid [AUDA]
- EET-dependent sEH activity (recombinant sEH): inhibited
- inhibitor of the sEH activity (overall statement) (recombinant sEH): potent inhibitors
- EET-dependent sEH activity [1]: inhibited
